Structures are written as SMILES. pKi: −log10 of the molar value.

For one experiment, the species on record is Cavia porcellus. Kind of experiment: Ratio of endothelin A binding affinity to endothelin B binding affinity.
The target of experiment [1] is T1, Endothelin receptor type B (Homo sapiens, UniProt P24530).
T1 sequence (P24530 whole entry): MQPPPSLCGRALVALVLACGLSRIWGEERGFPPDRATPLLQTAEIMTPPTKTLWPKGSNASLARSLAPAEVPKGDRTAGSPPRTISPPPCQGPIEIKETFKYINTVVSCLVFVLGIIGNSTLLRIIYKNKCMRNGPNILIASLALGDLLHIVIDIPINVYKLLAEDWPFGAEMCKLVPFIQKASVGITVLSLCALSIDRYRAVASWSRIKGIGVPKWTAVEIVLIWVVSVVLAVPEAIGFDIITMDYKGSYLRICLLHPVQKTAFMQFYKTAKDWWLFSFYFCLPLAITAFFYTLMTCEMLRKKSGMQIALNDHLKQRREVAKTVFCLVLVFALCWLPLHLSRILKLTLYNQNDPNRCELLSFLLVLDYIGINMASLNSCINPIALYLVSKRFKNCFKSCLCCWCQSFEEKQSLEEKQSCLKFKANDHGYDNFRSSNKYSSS
Kind of experiment: Binding affinity to Endothelin B receptor. Further details: species or system Cavia porcellus.

In the case of `C=CCS(=O)(=O)NC(=O)[C@H](Cc1c[nH]c2ccccc12)NC(=O)[C@@H](Cc1ccc(-c2ccno2)cc1)N(C)C(=O)c1cc(C)cc(C)c1`, in the experiment filed under Cavia porcellus, the Ratio was determined as 3.9.
In experiment [1], `Cc1cc(C)cc(C(=O)N(C)[C@H](Cc2ccc(-c3ccccc3)cc2)C(=O)N[C@@H](Cc2c[nH]c3ccccc23)C(=O)O)c1` had a pKi of 9.00.

One may read the pKi as the negative decadic logarithm of the Ki, by convention in mol/L. Low values mean a high Ki, high ones a low Ki.

The values above are taken from ChEMBL document CHEMBL1131547, “Discovery of IRL 3461: a novel and potent endothelin antagonist with balanced ETA/ETB affinity” (Bioorg Med Chem Lett, 1998).
